Assay [1] concerns the target T1, Neuronal acetylcholine receptor; alpha4/beta2 (Homo sapiens, UniProt P17787+P43681). As to the kind of experiment: Agonist activity at human high-sensitivity alpha4beta2 nAChR expressed in human SH-EP1 cells assessed as stimulation of 86Rb+ efflux preincubated for 10 mins by liquid scintillation counting relative to control. The format is functional, cell-based.

Amino acid sequences for entries named in this document (tags omitted). A change or cut given only in a name is not applied to a line headed by its entry.
UniProt P17787: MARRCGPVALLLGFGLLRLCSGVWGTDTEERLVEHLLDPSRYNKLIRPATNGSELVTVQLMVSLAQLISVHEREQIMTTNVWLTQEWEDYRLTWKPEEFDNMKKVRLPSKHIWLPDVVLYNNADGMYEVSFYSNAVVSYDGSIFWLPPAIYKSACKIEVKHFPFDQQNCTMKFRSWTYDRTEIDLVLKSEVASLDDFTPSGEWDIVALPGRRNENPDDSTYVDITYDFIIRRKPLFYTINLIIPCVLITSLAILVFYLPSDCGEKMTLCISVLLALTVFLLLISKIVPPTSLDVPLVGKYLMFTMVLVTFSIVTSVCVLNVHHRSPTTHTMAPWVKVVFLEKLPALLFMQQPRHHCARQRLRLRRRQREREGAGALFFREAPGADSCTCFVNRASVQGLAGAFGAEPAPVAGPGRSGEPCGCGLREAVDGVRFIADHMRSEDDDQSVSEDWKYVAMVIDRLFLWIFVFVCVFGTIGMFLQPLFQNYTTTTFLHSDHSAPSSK
UniProt P43681: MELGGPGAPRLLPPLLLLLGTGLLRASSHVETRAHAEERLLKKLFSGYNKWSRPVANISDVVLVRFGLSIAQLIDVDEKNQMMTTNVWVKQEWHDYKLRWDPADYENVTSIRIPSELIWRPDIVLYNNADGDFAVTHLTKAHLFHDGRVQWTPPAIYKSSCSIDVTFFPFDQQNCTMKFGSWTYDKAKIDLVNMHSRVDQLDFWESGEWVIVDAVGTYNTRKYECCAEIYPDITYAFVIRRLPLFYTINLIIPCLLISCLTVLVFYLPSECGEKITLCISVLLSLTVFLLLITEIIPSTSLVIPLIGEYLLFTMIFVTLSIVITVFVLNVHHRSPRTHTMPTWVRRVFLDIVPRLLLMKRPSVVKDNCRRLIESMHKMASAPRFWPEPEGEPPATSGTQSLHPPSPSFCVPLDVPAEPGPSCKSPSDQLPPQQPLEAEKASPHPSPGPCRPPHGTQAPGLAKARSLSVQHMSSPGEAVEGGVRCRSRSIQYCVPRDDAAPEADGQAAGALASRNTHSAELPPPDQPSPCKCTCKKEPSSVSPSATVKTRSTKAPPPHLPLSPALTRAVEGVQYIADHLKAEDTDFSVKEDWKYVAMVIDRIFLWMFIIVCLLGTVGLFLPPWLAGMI

Assay [2] has as its target T1, Neuronal acetylcholine receptor; alpha4/beta2. As to the kind of experiment: Agonist activity at human low-sensitivity alpha4beta2 nAChR expressed in human SH-EP1 cells assessed as stimulation of 86Rb+ efflux preincubated for 10 mins by liquid scintillation counting relative to control. It is filed as functional, cell-based.

On to `CN1CCC[C@H]1c1cccnc1` [NICOTINE], for which the results for the Efficacy in assay [1] and in assay [2] were 124% and 70%, respectively.
